Our source for the Ki values is BindingDB's records for doi:10.1021/acs.jmedchem.8b02026 (Leiden University, 2019).

Amino acid sequences for entries named in this document (tags omitted).
UniProt P0DMS8, whole entry: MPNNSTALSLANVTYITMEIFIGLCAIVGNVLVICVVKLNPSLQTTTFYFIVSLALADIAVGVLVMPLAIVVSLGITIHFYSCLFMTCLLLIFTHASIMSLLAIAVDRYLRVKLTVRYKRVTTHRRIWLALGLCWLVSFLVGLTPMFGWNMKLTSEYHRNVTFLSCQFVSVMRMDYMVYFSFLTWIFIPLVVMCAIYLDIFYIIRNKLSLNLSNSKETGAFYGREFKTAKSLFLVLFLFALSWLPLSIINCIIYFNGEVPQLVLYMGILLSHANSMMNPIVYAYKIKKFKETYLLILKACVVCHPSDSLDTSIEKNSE

Each structure is given as a SMILES string.

The target of experiment [1] is T1, Adenosine receptor A3 (Homo sapiens, UniProt P0DMS8). The experiment can be described thus: Displacement of [3H]PSB11 from human A3 adenosine receptor expressed in CHO cell membranes measured after 2 hrs by scintillation spectrometric method. The method in brief:
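CHO membranes stably expressing hA3AR (15 µg) in 50 mM Tris-HCl, 5 mM MgCl2, 0.01% CHAPS, 1 mM EDTA, pH 7.4, with ~10 nM [3H]PSB-11 and six competitor concentrations, 120 min at 25 °C. Nonspecific binding defined with 100 µM NECA. Filtration, then scintillation counting; one-site fit, Cheng-Prusoff Ki; three experiments in duplicate.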

For experiment [2], the target named is T1, Adenosine receptor A3. The experiment can be described thus: Displacement of [3H]PSB11 from human A3 adenosine receptor expressed in CHO cell membranes preincubated for 4 hrs followed by [3H]PSB11 addition and measured after 0.5 hrs by scintillation spectrometric method. Put shortly: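 hA3AR CHO membranes preincubated 4 h at 25 °C with competitor, then co-incubated 0.5 h with [3H]PSB-11 (~10 nM). Filtration and scintillation counting; apparent Ki; three experiments in duplicate.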
In general terms: Displacement assays read how much labelled ligand stays bound in the presence of the test substance.

The target of experiment [3] is T1, Adenosine receptor A3. The experiment in a line: Displacement of [3H]PSB11 from human A3 adenosine receptor expressed in CHO cell membranes measured after 0.5 hrs by scintillation spectrometric method. The method in brief:
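hA3AR CHO membranes co-incubated 0.5 h at 25 °C with competitor and [3H]PSB-11 (~10 nM) in Tris/MgCl2/CHAPS/EDTA buffer, pH 7.4. Filtration and scintillation counting; Ki by Cheng-Prusoff; three experiments in duplicate.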

On to `CCCn1c(=O)c2c(nc3cc(OC)ccn32)n(CCCNC(=O)c2ccc(S(=O)(=O)F)cc2)c1=O`, for which the Ki (in general, the dissociation constant of the complex between target and ligand, obtained from inhibition or displacement) is 10 nM at Adenosine receptor A3 [1], 10 nM at Adenosine receptor A3 [2] and 126 nM on Adenosine receptor A3 [3].
